Laboratory results published in patent US8906604B2, “Store-operated calcium cellular assay” (National Center for Biological Sciences, priority 2009, dated 2014).

Target: T1, Drosophila muscarinic acetylcholine receptor (mAChR) (Drosophila melanogaster, UniProt P16395)
T1 construct: pUASTmAChR construct generated from the Dm mAChR cDNA clone; expressed in transfected cells; host or cells: primary neurons from 3rd instar larval brains of transgenic Drosophila (ElavC155GAL4; UASdmAchR)
T1 sequence (P16395 1-805): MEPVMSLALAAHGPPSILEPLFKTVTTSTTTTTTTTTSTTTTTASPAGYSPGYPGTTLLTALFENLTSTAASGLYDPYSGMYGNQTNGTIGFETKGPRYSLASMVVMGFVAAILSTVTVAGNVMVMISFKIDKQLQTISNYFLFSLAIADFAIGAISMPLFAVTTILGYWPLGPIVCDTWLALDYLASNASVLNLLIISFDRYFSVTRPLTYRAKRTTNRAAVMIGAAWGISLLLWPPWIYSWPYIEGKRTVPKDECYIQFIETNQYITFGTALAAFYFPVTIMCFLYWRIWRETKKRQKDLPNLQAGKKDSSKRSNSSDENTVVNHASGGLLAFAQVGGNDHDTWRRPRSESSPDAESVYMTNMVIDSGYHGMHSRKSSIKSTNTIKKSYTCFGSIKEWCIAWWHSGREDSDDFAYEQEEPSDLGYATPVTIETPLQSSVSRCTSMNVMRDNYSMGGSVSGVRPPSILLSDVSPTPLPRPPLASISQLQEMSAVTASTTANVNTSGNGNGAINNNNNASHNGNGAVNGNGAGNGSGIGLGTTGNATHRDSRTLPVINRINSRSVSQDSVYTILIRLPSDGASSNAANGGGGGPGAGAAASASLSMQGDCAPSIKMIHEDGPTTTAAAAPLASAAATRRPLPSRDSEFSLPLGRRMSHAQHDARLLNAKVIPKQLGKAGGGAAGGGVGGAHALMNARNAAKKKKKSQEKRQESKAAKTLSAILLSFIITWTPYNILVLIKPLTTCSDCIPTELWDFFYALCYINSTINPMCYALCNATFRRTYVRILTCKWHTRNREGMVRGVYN
Test: Carbachol-stimulated Ca2+ release through the InsP3R in larval neurons expressing mAChR (Fluo-4 imaging)
Type: cell-based
Conditions: WT InsP3R; primary larval neurons with pan-neuronal mAChR; increasing carbachol concentrations (5, 10, 20 and 40 μM, FIG. 9d)
Procedure: Ca^2+ release through the InsP3R was measured by stimulating neurons ectopically expressing the Drosophila muscarinic acetylcholine receptor (mAChR) with increasing concentrations of the agonist carbachol. See Cordova, D. et al., Invert Neurosci, 5, 19-28 (2003); and Millar, N. S. et al., J Exp Biol, 198, 1843-1850 (1995). Pan-neuronal expression of the Drosophila mAChR had no measurable effect on viability or flight. […] Expression of mAChR transcripts, as determined by semiquantitative RT-PCR was similar in mutant and WT (FIG. 9c).
Larval neuron cultures were washed twice after growth for 14-16 h with Drosophila M1 medium and loaded in the dark with 2.5 μM Fluo-4 AM in M1 medium containing 0.002% Pluronic F-127, for 30 minutes at room temperature. […] For quantitative analysis, a field with several cells was selected and imaged using the epifluorescence optics of a Nikon TE2000 inverted wide field microscope with an oil objective (60× and 1.4 numerical aperture) lens. […] Emitted light was detected through a 505 nm bandpass filter (FITC filter set, 41001-exciter HQ480/40, dichroic Q505LP, emitter HQ535/50; Chroma, Brattleboro, Vt.). […]
Fluorescent images were acquired using the Evolution QExi CCD camera and In vivo imaging software (Media Cybernetics, Silver Spring, Md.). […] A total of 150-200 cells were analyzed from 5-7 dishes imaged for each genotype for each experiment. […]

SMILES: C[N+](C)(C)CCOC(N)=O [carbachol]
- Ca^2+ release through the InsP3R (ΔF/F): increased as a function of carbachol concentration
